Assay results from ChEMBL document CHEMBL2384903, “Highly efficient biocompatible neuroprotectants with dual activity as antioxidants and P2Y receptor agonists” (J Med Chem, 2013).

The chains behind the UniProt entries cited, without tags or fusion partners. Where a name states a change or a piece, a line headed by the entry shows the natural chain unless it says otherwise.
UniProt P47900: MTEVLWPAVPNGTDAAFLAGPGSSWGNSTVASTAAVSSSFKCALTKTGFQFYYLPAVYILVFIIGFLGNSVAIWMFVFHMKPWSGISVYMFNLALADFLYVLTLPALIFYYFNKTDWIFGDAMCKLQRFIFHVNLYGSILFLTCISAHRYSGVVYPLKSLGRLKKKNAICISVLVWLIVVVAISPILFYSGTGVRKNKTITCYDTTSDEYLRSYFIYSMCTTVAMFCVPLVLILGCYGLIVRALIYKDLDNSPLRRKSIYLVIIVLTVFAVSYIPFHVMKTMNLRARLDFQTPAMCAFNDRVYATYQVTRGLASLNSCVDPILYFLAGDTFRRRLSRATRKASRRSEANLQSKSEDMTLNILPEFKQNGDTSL

Target: P2Y purinoceptor 1 (Homo sapiens, UniProt P47900)
Experiment: Agonist activity at human GFP-tagged P2Y1R transfected in human 1321N1 cells assessed as induction of intracellular calcium mobilization by fluorescence assay
Type: functional, cell-based

EC50: 13 nM
Structure (SMILES): CSc1nc(N)c2ncn([C@@H]3O[C@H](COP(=O)(O)OP(=O)(O)O)[C@@H](O)[C@H]3O)c2n1
